Literature values, collected in article PMC5368065.

Amino acid sequences for entries named in this document (tags omitted). A change or cut given only in a name is not applied to a line headed by its entry.
UniProt Q9UPS6: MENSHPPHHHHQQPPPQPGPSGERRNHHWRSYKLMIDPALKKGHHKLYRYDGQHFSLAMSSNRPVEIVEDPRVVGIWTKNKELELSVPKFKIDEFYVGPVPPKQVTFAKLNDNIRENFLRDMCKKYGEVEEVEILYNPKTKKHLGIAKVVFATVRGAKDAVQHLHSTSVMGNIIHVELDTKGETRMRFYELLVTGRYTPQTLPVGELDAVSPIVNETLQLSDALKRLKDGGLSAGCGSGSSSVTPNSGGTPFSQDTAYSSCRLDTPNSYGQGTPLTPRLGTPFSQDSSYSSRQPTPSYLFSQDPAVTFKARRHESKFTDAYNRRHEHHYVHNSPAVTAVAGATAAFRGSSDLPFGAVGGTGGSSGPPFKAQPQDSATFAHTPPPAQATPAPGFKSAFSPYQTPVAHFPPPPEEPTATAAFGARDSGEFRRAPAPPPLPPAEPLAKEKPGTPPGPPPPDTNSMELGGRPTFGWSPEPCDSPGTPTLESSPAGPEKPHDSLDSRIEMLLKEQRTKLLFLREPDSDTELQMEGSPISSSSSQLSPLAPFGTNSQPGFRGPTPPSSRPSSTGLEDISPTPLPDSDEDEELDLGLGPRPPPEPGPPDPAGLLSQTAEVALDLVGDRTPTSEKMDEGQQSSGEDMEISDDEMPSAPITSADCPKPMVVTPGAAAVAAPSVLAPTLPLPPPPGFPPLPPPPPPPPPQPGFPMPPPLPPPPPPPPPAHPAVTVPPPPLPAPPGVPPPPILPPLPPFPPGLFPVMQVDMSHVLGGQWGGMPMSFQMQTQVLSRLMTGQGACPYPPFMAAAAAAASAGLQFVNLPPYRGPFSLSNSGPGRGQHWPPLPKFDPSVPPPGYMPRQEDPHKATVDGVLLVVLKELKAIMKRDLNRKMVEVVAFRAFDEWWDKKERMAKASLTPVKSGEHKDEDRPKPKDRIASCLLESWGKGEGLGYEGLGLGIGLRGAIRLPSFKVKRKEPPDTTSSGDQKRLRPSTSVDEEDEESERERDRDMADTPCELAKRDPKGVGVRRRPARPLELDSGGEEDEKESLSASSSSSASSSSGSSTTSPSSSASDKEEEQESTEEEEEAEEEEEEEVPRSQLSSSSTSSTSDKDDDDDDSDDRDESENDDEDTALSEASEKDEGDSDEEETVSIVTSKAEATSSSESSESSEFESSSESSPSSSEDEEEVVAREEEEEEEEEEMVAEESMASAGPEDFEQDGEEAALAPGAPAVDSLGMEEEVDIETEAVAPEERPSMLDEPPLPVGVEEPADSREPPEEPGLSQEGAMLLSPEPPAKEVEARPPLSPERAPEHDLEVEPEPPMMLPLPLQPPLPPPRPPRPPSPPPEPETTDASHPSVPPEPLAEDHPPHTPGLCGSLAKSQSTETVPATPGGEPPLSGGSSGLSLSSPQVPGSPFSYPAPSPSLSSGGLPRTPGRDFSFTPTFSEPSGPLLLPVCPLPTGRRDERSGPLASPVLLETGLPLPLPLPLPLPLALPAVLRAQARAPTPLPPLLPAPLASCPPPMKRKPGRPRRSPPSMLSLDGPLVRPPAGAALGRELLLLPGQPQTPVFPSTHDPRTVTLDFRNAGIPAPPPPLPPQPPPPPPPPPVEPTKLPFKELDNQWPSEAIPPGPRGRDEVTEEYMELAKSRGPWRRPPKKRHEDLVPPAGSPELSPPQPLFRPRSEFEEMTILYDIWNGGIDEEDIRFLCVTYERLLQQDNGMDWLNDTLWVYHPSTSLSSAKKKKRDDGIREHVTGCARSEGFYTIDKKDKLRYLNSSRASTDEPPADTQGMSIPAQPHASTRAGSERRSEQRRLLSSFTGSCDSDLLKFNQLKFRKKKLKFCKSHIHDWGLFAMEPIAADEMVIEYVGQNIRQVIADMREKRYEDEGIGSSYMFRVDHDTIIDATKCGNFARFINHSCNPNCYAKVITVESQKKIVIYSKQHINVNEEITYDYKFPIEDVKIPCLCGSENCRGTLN

Key:
[1] = biological target: SET1B WIN peptide WIN motif (Homo sapiens) (UniProt Q9UPS6)
[2] = biological target: histone H3 tail peptide (Homo sapiens) (UniProt P68431)
[3] = biological target: MLL3 WIN peptide WIN motif (Homo sapiens) (UniProt Q8NEZ4)
[4] = biological target: MLL2 WIN peptide WIN motif (Homo sapiens) (UniProt O14686)
[5] = biological target: MLL4 WIN peptide WIN motif (Homo sapiens) (UniProt Q9UMN6)
[6] = biological target: SET1A WIN peptide WIN motif (Homo sapiens) (UniProt O15047)

**Q.** Which Kd [1] does the source give for WDR5 (from UniProt P61964) here?
**A.** 103 nM

**Q.** And the Ki [2]?
**A.** 20 nM

**Q.** What about the Kd [3] of the same substance?
**A.** 54 nM

**Q.** And the Kd [4]?
**A.** 75 nM

**Q.** What about the Kd [5] of the same substance?
**A.** 88 nM

**Q.** And the Kd [6]?
**A.** 541 nM
